Tests used:
JAK1 = JAK1 (Homo sapiens (Human), UniProt P23458); experiment: Jak biochemical HTRF assay, JAK1; conditions: recombinant GST-tagged catalytic domain
Protocol: (§1) Jak Biochemical HTRF Assay Protocol
(§2) The ability of compounds to inhibit the activity of JAK1, JAK2, JAK3, and Tyk2 was measured using a recombinant purified GST-tagged catalytic domain for each enzyme (Invitrogen JAK1 #M4290, JAK2 #M4290, JAK3 #M4290, Tyk2 #M4290) in an HTRF format biochemical assay. […] The basic assay protocol is as follows: First, 250 nL of diluted compounds in DMSO were dispensed into the wells of a dry 384-well Black plate (Greiner #781076) using a Labcyte Echo 555 acoustic dispenser. Subsequent reagent additions employed an Agilent Bravo. […] After equilibration, 2 μL of 10×ATP in 1× assay buffer was added to initiate the kinase reaction and the plates were shaken and then incubated at room temperature for 120 minutes. […] Plates were shaken and centrifuged and then incubated 60 minutes at room temperature and then read on a Perkin Elmer Envision (λex=337 nm, λem=665 and 615 nm, TRF delay time=20 μs). HTRF signal=10,000*665 nm reading/615 nm reading. After normalization to untreated controls, the percent inhibition of the HTRF signal at each compound concentration was calculated. The plot of percent inhibition versus the log of compound concentration was fit with a 4-parameter dose response equation to calculate IC50 values.
(§3) Final Reaction Conditions were:
(§4) Examples of the instant invention were evaluated in JAK1 and JAK2 in vitro binding assays.

Protein sequences, listed by entry. Tags and fused reporters are not part of them. Residues count along the entry.
UniProt P23458, 875-1153: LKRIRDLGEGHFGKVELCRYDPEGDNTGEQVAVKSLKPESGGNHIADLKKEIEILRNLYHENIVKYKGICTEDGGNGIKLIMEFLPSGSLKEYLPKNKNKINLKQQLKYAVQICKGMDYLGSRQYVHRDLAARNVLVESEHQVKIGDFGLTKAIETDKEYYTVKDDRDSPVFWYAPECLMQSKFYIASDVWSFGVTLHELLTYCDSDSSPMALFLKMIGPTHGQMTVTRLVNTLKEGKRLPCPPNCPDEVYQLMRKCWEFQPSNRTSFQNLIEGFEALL
UniProt O60674, 849-1124: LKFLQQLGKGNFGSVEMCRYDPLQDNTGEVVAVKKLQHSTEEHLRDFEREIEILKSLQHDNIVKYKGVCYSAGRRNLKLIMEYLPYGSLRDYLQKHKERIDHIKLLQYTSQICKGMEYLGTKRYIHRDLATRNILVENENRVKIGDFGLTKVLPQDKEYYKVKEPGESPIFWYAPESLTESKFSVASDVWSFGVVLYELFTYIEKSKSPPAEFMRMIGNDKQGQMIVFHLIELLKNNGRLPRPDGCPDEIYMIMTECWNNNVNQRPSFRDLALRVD

JAK2 = JAK2 (Homo sapiens (Human), UniProt O60674); experiment: Jak biochemical HTRF assay, JAK2; conditions: recombinant GST-tagged catalytic domain
Protocol: as §1, §2, §3, §4

IC50 (JAK1)	IC50 (JAK2)	Compound
1.1 nM	4.4 nM	CS(=O)(=O)c1ccc(Nc2nn([C@H]3CCC4(CC4)C[C@@H]3C#N)c3cc[nH]c(=O)c23)cc1 (racemic) [Example 14-1, Racemic-trans-6-(3-((4-(methylsulfonyl)phenyl)amino)-4-oxo-4,5-dihydro-1H-pyrazolo[4,3-c]pyridin-1-yl)spiro[2.5]octane-5-carbonitrile]
0.8 nM	2.2 nM	CN(C)S(=O)(=O)c1ccc(Nc2nn([C@H]3CCC4(CC4)C[C@@H]3C#N)c3cc[nH]c(=O)c23)cc1 (racemic) [Example 14-2, Racemic-trans-4-((1-(5-cyanospiro[2.5]octan-6-yl)-4-oxo-4,5-dihydro-1H-pyrazolo[4,3-c]pyridin-3-yl)amino)-N,N-dimethylbenzenesulfonamide]
0.34 nM	2.1 nM	CC(C)(C)OC(=O)[C@H]1CC[C@@](O)(c2ccc(Nc3nn([C@H]4CCCC[C@@H]4C#N)c4cc[nH]c(=O)c34)cc2)CC1 (racemic) [Example 15-39, (1S,4S and 1R,4R)-tert-butyl 4-(4-((1-((1S,2S)-2-cyanocyclohexyl)-4-oxo-4,5-dihydro-1H-pyrazolo[4,3-c]pyridin-3-yl)amino)phenyl)-4-hydroxycyclohexanecarboxylate]
0.77 nM	1.5 nM	CC(C)(C)OC(=O)[C@H]1CC[C@](O)(c2ccc(Nc3nn([C@H]4CCCC[C@@H]4C#N)c4cc[nH]c(=O)c34)cc2)CC1 (racemic) [Example 15-40, (1S,4R and 1R,4S)-tert-butyl 4-(4-((1-((1S,2S)-2-cyanocyclohexyl)-4-oxo-4,5-dihydro-1H-pyrazolo[4,3-c]pyridin-3-yl)amino)phenyl)-4-hydroxycyclohexanecarboxylate]
0.079 nM	–	CC(C)C(c1ccc(Nc2nn([C@H]3CCCC[C@@H]3C#N)c3cc[nH]c(=O)c23)cc1)n1ccnn1 (single isomer, unassigned) [Example 15-23, (1S,2S)-2-[3-({4-[(1R or 1S)-2-methyl-1-(1H-1,2,3-triazol-1-yl)propyl]phenyl}amino)-4-oxo-4,5-dihydro-1H-pyrazolo[4,3-c]pyridin-1-yl]cyclohexanecarbonitrile]
0.069 nM	–	CC(C)C(c1ccc(Nc2nn([C@H]3CCCC[C@@H]3C#N)c3cc[nH]c(=O)c23)cc1)n1ccnn1 (single isomer, unassigned) [Example 15-24, (1S,2S)-2-[3-({4-[(1S or 1R)-2-methyl-1-(1H-1,2,3-triazol-1-yl)propyl]phenyl}amino)-4-oxo-4,5-dihydro-1H-pyrazolo[4,3-c]pyridin-1-yl]cyclohexanecarbonitrile]
6.6 nM	–	N#C[C@H]1CCCCC[C@@H]1n1nc(Nc2ccc3c(c2)CN(C2CCCC2)C3=O)c2c(=O)[nH]ccc21 (single isomer, unassigned) [Example 15-50, (1S,2S or 1R,2R)-2-{3-[(2-cyclopentyl-1-oxo-2,3-dihydro-1H-isoindol-5-yl)amino]-4-oxo-4,5-dihydro-1H-pyrazolo[4,3-c]pyridin-1-yl}cycloheptanecarbonitrile]
0.053 nM	–	N#C[C@@H]1CCCCC[C@H]1n1nc(Nc2ccc3c(c2)CN(C2CCCC2)C3=O)c2c(=O)[nH]ccc21 (single isomer, unassigned) [Example 15-52, (1R,2R or 1S,2S)-2-{3-[(2-cyclopentyl-1-oxo-2,3-dihydro-1H-isoindol-5-yl)amino]-4-oxo-4,5-dihydro-1H-pyrazolo[4,3-c]pyridin-1-yl}cycloheptanecarbonitrile]
0.76 nM	–	CC(C)C(c1ccc(Nc2nn([C@H]3CCCC[C@@H]3C#N)c3cc[nH]c(=O)c23)cc1)n1cc(C(C)(C)C)nn1 (single isomer, unassigned) [Example 15-55, (1S,2S)-2-[3-({4-[(1S or 1R)-1-(4-tert-butyl-1H-1,2,3-triazol-1-yl)-2-methylpropyl]phenyl}amino)-4-oxo-4,5-dihydro-1H-pyrazolo[4,3-c]pyridin-1-yl]cyclohexanecarbonitrile]
0.81 nM	–	CC(C)C(c1ccc(Nc2nn([C@H]3CCCC[C@@H]3C#N)c3cc[nH]c(=O)c23)cc1)n1cc(C(C)(C)C)nn1 (single isomer, unassigned) [Example 15-56, (1S,2S)-2-[3-({4-[(1R or 1S)-1-(4-tert-butyl-1H-1,2,3-triazol-1-yl)-2-methylpropyl]phenyl}amino)-4-oxo-4,5-dihydro-1H-pyrazolo[4,3-c]pyridin-1-yl]cyclohexanecarbonitrile]
0.1 nM	–	N#C[C@H]1CCCC[C@@H]1n1nc(Nc2ccc(C3(C(F)(F)F)CCCCN3)cc2)c2c(=O)[nH]ccc21 (single isomer, unassigned) [Example 15-74, (1S,2S)-2-[4-oxo-3-({4-[(2S or 2R)-2-(trifluoromethyl)piperidin-2-yl]phenyl}amino)-4,5-dihydro-1H-pyrazolo[4,3-c]pyridin-1-yl]cyclohexanecarbonitrile]
0.12 nM	–	N#C[C@H]1CCCC[C@@H]1n1nc(Nc2ccc(C3(C(F)(F)F)CCCCN3)cc2)c2c(=O)[nH]ccc21 (single isomer, unassigned) [Example 15-75, (1S,2S)-2-[4-oxo-3-({4-[(2R or 2S)-2-(trifluoromethyl)piperidin-2-yl]phenyl}amino)-4,5-dihydro-1H-pyrazolo[4,3-c]pyridin-1-yl]cyclohexanecarbonitrile]
1.7 nM	–	CC(C)(C)S(=O)(=O)c1ccc(Nc2nn([C@H]3CC(F)(F)C[C@H]3C#N)c3cc[nH]c(=O)c23)cc1 (single isomer, unassigned) [Example 22-1, (1R,2S or 1S,2R)-2-(3-((4-(tert-Butylsulfonyl)phenyl)amino)-4-oxo-4,5-dihydro-1H-pyrazolo[4,3-c]pyridin-1-yl)-4,4-difluorocyclopentanecarbonitrile]
16 nM	–	CC(C)(C)S(=O)(=O)c1ccc(Nc2nn([C@@H]3CC(F)(F)C[C@@H]3C#N)c3cc[nH]c(=O)c23)cc1 (single isomer, unassigned) [Example 22-2, (1S,2R or 1R,2S)-2-(3-((4-(tert-Butylsulfonyl)phenyl)amino)-4-oxo-4,5-dihydro-1H-pyrazolo[4,3-c]pyridin-1-yl)-4,4-difluorocyclopentanecarbonitrile]

The next lines start with the compound.

Compound	IC50 (JAK1)	IC50 (JAK2)
CS(=N)(=O)c1ccc(Nc2nn(C3CCCC[C@@H]3C#N)c3cc[nH]c(=O)c23)cc1 (single isomer, unassigned) [Example 3-110, (1S,2S)-2-(3-{[4-((S or R)-S-methylsulfonimidoyl)phenyl]amino}-4-oxo-4,5-dihydro-1H-pyrazolo[4,3-c]pyridin-1-yl)cyclohexanecarbonitrile]	0.42 nM	1.1 nM
CS(=N)(=O)c1ccc(Nc2nn(C3CCCC[C@@H]3C#N)c3cc[nH]c(=O)c23)cc1 (single isomer, unassigned) [Example 3-111, (1S,2S)-2-(3-{[4-((S or R)-S-methylsulfonimidoyl)phenyl]amino}-4-oxo-4,5-dihydro-1H-pyrazolo[4,3-c]pyridin-1-yl)cyclohexanecarbonitrile]	0.23 nM	0.88 nM
CCOC(=O)C(C)(C)C(O)(c1ccc(Nc2nn([C@H]3CCCC[C@@H]3C#N)c3cc[nH]c(=O)c23)cc1)C(F)(F)F (single isomer, unassigned) [Example 3-117, (R or S) Ethyl 3-(4-((1-((1S,2S)-2-cyanocyclohexyl)-4-oxo-4,5-dihydro-1H-pyrazolo[4,3-c]pyridin-3-yl)amino)phenyl)-4,4,4-trifluoro-3-hydroxy-2,2-dimethylbutanoate]	1.7 nM	6 nM
N#C[C@H]1CCCC[C@@H]1n1nc(Nc2ccc(C(O)C(F)F)cc2)c2c(=O)[nH]ccc21 (stereo partly drawn) [Example 3-70, (1S,2S)-2-(3-{[4-(2,2-difluoro-1-hydroxyethyl)phenyl]amino}-4-oxo-4,5-dihydro-1H-pyrazolo[4,3-c]pyridin-1-yl)cyclohexanecarbonitrile]	0.14 nM	–
CC(O)(CCO)c1cc(Nc2nn([C@H]3CCCC[C@@H]3C#N)c3cc[nH]c(=O)c23)ccc1S(C)(=O)=O (stereo partly drawn) [Example 3-86, (1S,2S)-2-(3-{[3-(1,3-dihydroxy-1-methylpropyl)-4-(methylsulfonyl)phenyl]amino}-4-oxo-4,5-dihydro-1H-pyrazolo[4,3-c]pyridin-1-yl)cyclohexanecarbonitrile]	2.8 nM	–
N#C[C@H]1CCCC[C@@H]1n1nc(Nc2ccc3c(c2)CCNC3)c2c(=O)[nH]ccc21 [Example 3-156, (1S,2S)-2-[4-oxo-3-(1,2,3,4-tetrahydroisoquinolin-6-ylamino)-4,5-dihydro-1H-pyrazolo[4,3-c]pyridin-1-yl]cyclohexanecarbonitrile]	0.82 nM	–
C[C@H](N[C@H]1CC[C@H](n2nc(Nc3ccc(Cl)c(F)c3)c3c(=O)[nH]ccc32)[C@@H](C#N)C1)C1CC1 [Example 5-6, (1S,2S,5S)-2-(3-((4-chloro-3-fluorophenyl)amino)-4-oxo-4,5-dihydro-1H-pyrazolo[4,3-c]pyridin-1-yl)-5-(((S)-1-cyclopropylethyl)amino)cyclohexanecarbonitrile]	1.3 nM	–
N#C[C@H]1C[C@@H](N2CCC2)CC[C@@H]1n1nc(Nc2ccc(Cl)cc2)c2c(=O)[nH]ccc21 [Example 5-18, (1S,2S,5S)-5-(azetidin-1-yl)-2-(3-((4-chlorophenyl)amino)-4-oxo-4,5-dihydro-1H-pyrazolo[4,3-c]pyridin-1-yl)cyclohexanecarbonitrile]	0.54 nM	–

— US9725445B2, “Cycloalkyl nitrile pyrazolo pyridones as Janus kinase inhibitors” (Merck Sharp & Dohme Corp., priority 2013, dated 2017)
